# Measurements from ChEMBL document CHEMBL3232853, “Alkylsulfone-containing trisubstituted cyclohexanes as potent and bioavailable chemokine receptor 2 (CCR2) antagonists” (Bioorg Med Chem Lett, 2014).
# Species: Rattus norvegicus
# Test: Inhibition of rat sodium channel site 2 at 10 uM relative to control
structure (smiles),measurement,value
CC(C)N(C)[C@@H]1CC[C@H](N2CC[C@H](NC(=O)c3cccc(C(C)(C)C)c3)C2=O)[C@H](CS(C)(=O)=O)C1,inhibition,52%
